Experimental data reported in US10604481B2, “(Thio, oxo and seleno) semicarbazone complexes with zinc and their use for treating cancer” (RUTGERS, THE STATE UNIVERSITY OF NEW JERSEY, priority 2015, dated 2020).

Test system: TOV112D (ovarian cancer, p53-R175H) cells
Experiment: Intracellular [Zn2+]free imaging with FluoZin-3-AM, TOV112D
Type: cell-based, human
Conditions: for increase of intracellular [Zn2+]free (FZ3 fluorescence): complete media

Compound | t1/2 of intracellular [Zn2+]free increase (ZMC1 and ZnCl2, EBSS/H (−)Ca/Mg, mean±SD, n=4) [min] | increase of intracellular [Zn2+]free (FZ3 fluorescence)
C/C(=N\NC(=S)N1CCC1)c1ccccn1 [Compound 6, (E)-N′-(1-(pyridin-2-yl)ethylidene)azetidine-1-carbothiohydrazide] | 2.6 ± 0.833 | increased intracellular [Zn^2+]free
C/C(=N\NC(=O)N1CCC1)c1ccccn1 [Compound 10, (E)-N′-(1-(pyridin-2-yl)ethylidene)azetidine-1-carbohydrazide] | – | did not
O=C(O)CN(CC(=O)O)CC(=O)O [NTA, reference compound] | – | did not
